{"source": "patent US5736529A", "about": "“Use of NAD-related compounds in the treatment of neural trauma to inhibit neurodegeneration” (priority 1996, dated 1998)", "key": {"[1]": {"tested_on": "dopaminergic neurons in the midbrain", "assay": "Apoptosis in MPTP treated mice (In Situ Apoptosis Detection Kit, tyrosine hydroxylase staining)", "assay_type": "in vivo, mouse (C57BL/6)", "conditions": "MPTP treated brains"}, "[2]": {"tested_on": "DNA in midbrain and striatum of C57BL/6 mice", "assay": "Fluorimetric assay of DNA fragmentation in MPTP treated mice (Table 7)", "assay_type": "in vivo, mouse (C57BL/6)", "conditions": "for DNA damage, STRIATUM: MPTP 25 mg/kg ip twice, mean ± S.D.", "source_text": "A fifth group was the control. Brains were removed and the midbrain and striatum isolated."}}, "data": [{"smiles": "CN1CC=C(c2ccccc2)CC1", "note": "[MPTP, 1-methyl-4-phenyl-1,2,3,6-tetrahydropyridine]", "values": [{"measurement": "tyrosine hydroxylase stained cells", "setting": "[1]", "value": "condensed cells with fragmented nuclei can be clearly observed"}, {"measurement": "DNA fragmentation in the striatum", "setting": "[2]; 25 mg/kg MPTP twice, 48 hours", "value": "not in the striatum"}, {"measurement": "DNA damage, STRIATUM", "setting": "[2]; 2 hours", "value": "0.9256 ± 0.0593 per gram of tissue"}, {"measurement": "DNA damage, STRIATUM", "setting": "[2]; 48 hours", "value": "1.2433 ± 0.2420 per gram of tissue"}]}]}
